The values below come from ChEMBL document CHEMBL1145097, “3-[(2-Methyl-1,3-thiazol-4-yl)ethynyl]-pyridine: a potent and highly selective metabotropic glutamate subtype 5 receptor antagonist with anxiolytic activity” (J Med Chem, 2003).

By UniProt entry, the sequences of proteins in these tests, tags left out.
UniProt P31424, whole entry: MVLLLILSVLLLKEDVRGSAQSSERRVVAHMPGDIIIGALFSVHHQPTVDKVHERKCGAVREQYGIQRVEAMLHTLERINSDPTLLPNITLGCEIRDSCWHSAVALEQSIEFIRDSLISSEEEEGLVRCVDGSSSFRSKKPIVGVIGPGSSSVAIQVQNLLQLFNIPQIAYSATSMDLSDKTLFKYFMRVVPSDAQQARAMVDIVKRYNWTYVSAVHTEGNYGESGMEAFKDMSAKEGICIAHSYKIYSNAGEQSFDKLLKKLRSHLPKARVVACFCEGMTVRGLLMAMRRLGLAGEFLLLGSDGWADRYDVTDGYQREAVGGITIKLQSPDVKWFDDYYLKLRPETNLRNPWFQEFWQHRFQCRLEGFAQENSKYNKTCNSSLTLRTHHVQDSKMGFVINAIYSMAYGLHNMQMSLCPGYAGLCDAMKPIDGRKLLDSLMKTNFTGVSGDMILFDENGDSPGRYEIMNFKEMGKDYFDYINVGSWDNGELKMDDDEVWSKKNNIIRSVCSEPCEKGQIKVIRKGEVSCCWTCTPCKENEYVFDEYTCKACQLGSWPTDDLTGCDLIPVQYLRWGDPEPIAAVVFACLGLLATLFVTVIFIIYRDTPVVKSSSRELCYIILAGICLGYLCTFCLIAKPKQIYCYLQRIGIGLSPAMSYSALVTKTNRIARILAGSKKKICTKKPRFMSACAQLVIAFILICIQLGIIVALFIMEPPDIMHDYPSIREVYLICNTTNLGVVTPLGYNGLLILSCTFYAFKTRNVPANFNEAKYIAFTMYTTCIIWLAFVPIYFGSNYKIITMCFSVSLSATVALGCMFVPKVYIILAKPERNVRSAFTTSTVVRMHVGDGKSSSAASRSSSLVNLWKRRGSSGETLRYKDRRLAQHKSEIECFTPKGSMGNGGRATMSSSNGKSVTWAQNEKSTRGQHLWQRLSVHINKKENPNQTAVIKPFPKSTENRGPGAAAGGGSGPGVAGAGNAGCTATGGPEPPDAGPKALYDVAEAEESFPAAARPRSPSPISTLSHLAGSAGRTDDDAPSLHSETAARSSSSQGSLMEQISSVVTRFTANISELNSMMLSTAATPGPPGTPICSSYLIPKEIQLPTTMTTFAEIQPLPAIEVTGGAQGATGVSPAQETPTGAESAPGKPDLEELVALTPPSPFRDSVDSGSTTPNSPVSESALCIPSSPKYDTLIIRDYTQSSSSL
UniProt P41594, whole entry: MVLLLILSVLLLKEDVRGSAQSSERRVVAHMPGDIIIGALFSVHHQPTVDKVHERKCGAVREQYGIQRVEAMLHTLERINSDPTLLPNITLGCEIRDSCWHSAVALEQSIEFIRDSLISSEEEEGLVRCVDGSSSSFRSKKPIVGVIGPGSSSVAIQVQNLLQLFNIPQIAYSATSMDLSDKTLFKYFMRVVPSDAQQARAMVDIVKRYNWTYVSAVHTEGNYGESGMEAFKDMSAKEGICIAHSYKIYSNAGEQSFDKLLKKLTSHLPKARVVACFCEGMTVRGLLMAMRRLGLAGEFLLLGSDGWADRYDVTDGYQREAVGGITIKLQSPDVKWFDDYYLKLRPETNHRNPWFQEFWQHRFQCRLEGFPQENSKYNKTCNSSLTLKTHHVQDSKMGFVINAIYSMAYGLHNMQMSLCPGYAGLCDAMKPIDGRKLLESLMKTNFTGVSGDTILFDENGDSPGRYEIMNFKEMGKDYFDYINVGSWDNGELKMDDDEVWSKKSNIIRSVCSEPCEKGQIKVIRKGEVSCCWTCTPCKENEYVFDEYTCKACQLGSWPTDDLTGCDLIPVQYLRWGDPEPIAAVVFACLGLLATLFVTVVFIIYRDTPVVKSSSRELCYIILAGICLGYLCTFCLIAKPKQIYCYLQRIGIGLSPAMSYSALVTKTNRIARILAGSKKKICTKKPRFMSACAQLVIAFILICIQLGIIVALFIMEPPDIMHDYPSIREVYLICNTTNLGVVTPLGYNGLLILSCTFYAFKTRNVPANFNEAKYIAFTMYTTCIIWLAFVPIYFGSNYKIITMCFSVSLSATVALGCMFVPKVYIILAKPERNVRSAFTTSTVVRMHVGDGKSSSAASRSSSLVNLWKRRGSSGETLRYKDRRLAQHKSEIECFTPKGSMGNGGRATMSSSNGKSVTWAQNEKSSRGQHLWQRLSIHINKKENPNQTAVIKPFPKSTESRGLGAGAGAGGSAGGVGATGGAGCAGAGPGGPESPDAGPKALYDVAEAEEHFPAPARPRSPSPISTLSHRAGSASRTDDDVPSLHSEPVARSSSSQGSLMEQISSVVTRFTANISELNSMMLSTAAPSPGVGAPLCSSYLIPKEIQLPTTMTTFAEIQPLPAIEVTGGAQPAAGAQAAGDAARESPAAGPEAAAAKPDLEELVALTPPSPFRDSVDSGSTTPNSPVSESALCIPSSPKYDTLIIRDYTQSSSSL

Broadly, the Ki is a measure of affinity in units of concentration, obtained from inhibition or displacement. Low readings indicate a stronger hold on the target, high ones a looser hold on the target. For orientation: IC50 means the concentration that gives 50% inhibition.

In experiment [1] the target is T1, Metabotropic glutamate receptor 5 (Rattus norvegicus, UniProt P31424). The experiment in a line: (§1) Tested for displacement of [3H]3-methoxy-5-(pyridin-2-ylethynyl) pyridine from Metabotropic glutamate receptor 5 in rat cortical membrane. It is filed as cell membranes. In short, it runs like this: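 Rat cortical membranes; displacement of [3H]-3-methoxy-5-(pyridin-2-ylethynyl)pyridine bound to native mGlu5. Geometric mean with standard deviation and number of replicates.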
(In general: In a radioligand displacement assay an active substance lowers the binding of a labelled ligand.)

The target of experiment [2] is Metabotropic glutamate receptor 5 (Homo sapiens, UniProt P41594). The experiment is described as follows: Tested in vitro against human recombinant Metabotropic glutamate receptor 5 stably expressed in LtK cells by [Ca2+] flux assay using glutamate as agonist.
For experiment [3], the target named is T1, Metabotropic glutamate receptor 5. The description is as §1. It counts as cell membranes. This is another data set of the same source.

Regarding `Cc1nc(C#Cc2cccnc2)cs1`, the Ki in experiment [1] turned out to be 16 nM. Besides, the IC50 in experiment [2] amounted to 5 nM.
In experiment [3], `Cc1cccc(C#Cc2ccccc2)n1` returned a Ki of 12 nM.
